US6270979A (priority 1998, dated 2001)
Entries after “also recorded” stand apart in the source; their conditions may differ.

The chains behind the UniProt entries cited, without tags or fusion partners.
UniProt P33535, whole entry: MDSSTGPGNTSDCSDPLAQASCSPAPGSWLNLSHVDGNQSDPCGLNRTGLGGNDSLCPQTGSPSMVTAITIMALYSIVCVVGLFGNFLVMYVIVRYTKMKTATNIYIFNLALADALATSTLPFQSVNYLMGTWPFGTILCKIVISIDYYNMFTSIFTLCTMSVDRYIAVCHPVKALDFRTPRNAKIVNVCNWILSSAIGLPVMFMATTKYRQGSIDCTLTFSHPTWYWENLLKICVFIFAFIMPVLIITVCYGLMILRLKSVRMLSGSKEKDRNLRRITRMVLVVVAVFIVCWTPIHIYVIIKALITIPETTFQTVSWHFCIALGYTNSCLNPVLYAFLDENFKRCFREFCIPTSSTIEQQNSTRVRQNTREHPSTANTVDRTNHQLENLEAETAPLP
UniProt P35372, whole entry: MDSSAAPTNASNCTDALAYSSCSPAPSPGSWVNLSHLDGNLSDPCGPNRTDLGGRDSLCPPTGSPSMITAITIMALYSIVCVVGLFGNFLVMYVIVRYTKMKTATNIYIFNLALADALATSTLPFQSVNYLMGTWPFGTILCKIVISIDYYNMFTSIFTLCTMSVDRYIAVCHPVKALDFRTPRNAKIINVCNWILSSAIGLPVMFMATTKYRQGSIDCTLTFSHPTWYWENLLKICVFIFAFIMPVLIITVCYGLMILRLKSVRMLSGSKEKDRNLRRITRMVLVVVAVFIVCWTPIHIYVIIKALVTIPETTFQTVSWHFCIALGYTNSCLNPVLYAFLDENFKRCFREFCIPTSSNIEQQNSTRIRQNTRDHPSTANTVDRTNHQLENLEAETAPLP

How the values were obtained:
[1] = molecular target: epitope-tagged μ opioid receptor (EE-μR) (Rattus norvegicus, UniProt P33535); format: cell-based
opioid μ receptor = opioid μ receptor (Homo sapiens, UniProt P35372); format: cell-based

D-Phe-Cys-Tyr-D-Trp-Arg-Thr-Pen-ThrNH2 [CTAP]
effect on μ receptor (μ*) phosphorylation [1]: did not block μ* phosphorylation; also recorded: consistently lowered the level of μ* phosphorylation relative to naloxone
classification of opioid drug (agonist / neutral / negative antagonist) (opioid μ receptor): neutral antagonists
effect on cAMP levels / constitutive activity in morphine pretreated cells (opioid μ receptor): do not affect cAMP levels; also recorded: no significant effect on cAMP levels in dependent cells
